According to article PMC5399052, “Integrating in vitro data and physiologically based kinetic (PBK) modelling to assess the in vivo potential developmental toxicity of a series of phenols” (Archives of Toxicology, 2016):

What was measured:
rat = test: In vitro PBK-based reverse dosimetry (predicted developmental toxicity)

CCCCCCCOc1ccc(O)cc1 [p-Heptyloxyphenol, p-heptyloxyphenol] was tested, and the “P app BeWo fold lower than P app Caco-2” value (BeWo cells) was 6.8 fold, the “Potency ratio (phenol / p-substituted phenol), in vitro PBK approach” value (rat; BMDL05 based on Cmax) was 0.8 fold and the “Difference between in vitro-derived and in vivo-derived relative potency after PBK-based reverse dosimetry” value (rat; EST data with reverse dosimetry) was less than 2.1 fold. The “Fold difference predicted BMDL05 (AUC0-10d) versus in vivo BMDL05” value (rat; rat GD11) was 1.7 fold, the “Fold difference predicted BMDL05 (Cmax) versus in vivo BMDL05” value (rat; rat GD11) was 4.2 fold and the “Catalytic efficiency (Vmax/Km)” value (rat liver microsomes) was 28.0 ml/min/mg protein. The Scaled catalytic efficiency (rat liver microsomes) was 63.8 l/h/g liver.
